The text below walks through data of patent EP4563146A1 (IRBM S.P.A., priority 2023, dated 2025).

The structures appear in SMILES notation.

In test [1] the target is DEN4V NS2B-G4SG4NS3 serine protease (Dengue virus type 4, UniProt P09866). Briefly: DEN4V protease inhibition assay.
Test [2] concerns the target DEN3V NS2B-G4SG4NS3 serine protease (Dengue virus type 3, UniProt Q6YMS4). In words: DEN3V protease inhibition assay.
For test [3], the target named is DEN2V NS2B-G4SG4-NS3 serine protease (Dengue virus type 2, UniProt Q91H74). In words: DEN2V protease inhibition assay.
Test [4] addresses DEN1V NS2B-G4SG4NS3 serine protease (Dengue virus type 1, UniProt P17763). Briefly: DEN1V protease inhibition assay.

For the compound `COC(=O)Cc1ccc(C[n+]2cc([N-]C(=O)Nc3cc(NC(=O)Cc4ccccc4)cc(C(F)(F)F)c3)on2)cc1` [Example 109, (3-(4-(2-Methoxy-2-oxoethyl)benzyl)-1,2,3-oxadiazol-3-ium-5-yl)((3-(2-phenylacetamido)-5-(trifluoromethyl)phenyl)carbamoyl)amide], the IC50 was 100 to 1000 nM in test [1], < 100 nM in test [2], < 100 nM in test [3] and 1000 to 20000 nM in test [4].
Turning to `O=C(Cc1ccccc1)Nc1cc(NC(=O)[N-]c2c[n+](Cc3ccc(CCO)cc3)no2)cc(C(F)(F)F)c1` [Example 111, (3-(4-(2-Hydroxyethyl)benzyl)-1,2,3-oxadiazol-3-ium-5-yl)((3-(2-phenylacetamido)-5-(trifluoromethyl)phenyl)carbamoyl)amide], the IC50 in test [1] was 100 to 1000 nM; in test [2], < 100 nM; in test [3], < 100 nM; in test [4] it was 1000 to 20000 nM.
As to `NC1C2COCC1CC([n+]1cc([N-]C(=O)Nc3cc(NC(=O)Cc4ccccc4)cc(C(F)(F)F)c3)on1)C2` (centres unmarked) [Example 112, (3-(9-Amino-3-oxabicyclo[3.3.1]nonan-7-yl)-1,2,3-oxadiazol-3-ium-5-yl)((3-(2-phenylacetamido)-5-(trifluoromethyl)phenyl)carbamoyl)amide], the IC50 in test [1] was 1000 to 20000 nM; in test [2], 100 to 1000 nM; in test [3] it was < 100 nM; in test [4], 1000 to 20000 nM.
As to `COC(=O)c1ccc(C[n+]2cc([N-]C(=O)Nc3cc(NC(=O)Cc4ccccc4)cc(C(F)(F)F)c3)on2)nc1` [Example 113, (3-((5-(Methoxycarbonyl)pyridin-2-yl)methyl)-1,2,3-oxadiazol-3-ium-5-yl)((3-(2-phenylacetamido)-5-(trifluoromethyl)phenyl)carbamoyl)amide], the IC50 is 1000 to 20000 nM in test [1], 100 to 1000 nM in test [2], < 100 nM in test [3] and > 20000 nM in test [4].
For `NCc1ccccc1C[n+]1cc([N-]C(=O)Nc2cc(NC(=O)Cc3ccccc3)cc(C(F)(F)F)c2)on1` [Example 114, (3-(2-(Aminomethyl)benzyl)-1,2,3-oxadiazol-3-ium-5-yl)((3-(2-phenylacetamido)-5-(trifluoromethyl)phenyl)carbamoyl)amide], in that order: 1000 to 20000 nM, 100 to 1000 nM, < 100 nM and 1000 to 20000 nM.
For `O=C(Cc1ccccc1)Nc1cc(NC(=O)[N-]c2c[n+](CC3CNCCCO3)no2)cc(C(F)(F)F)c1` (centres unmarked) [Example 115, (3-((1,4-oxazepan-2-yl)methyl)-1,2,3-oxadiazol-3-ium-5-yl)((3-(2-phenylacetamido)-5-(trifluoromethyl)phenyl)carbamoyl)amide], in that order: 1000 to 20000 nM, 100 to 1000 nM, < 100 nM and 1000 to 20000 nM.
For `O=C(Cc1ccccc1)Nc1cc(NC(=O)[N-]c2c[n+](Cc3ccc(CO)cn3)no2)cc(C(F)(F)F)c1` [Example 116, (3-((5-(Hydroxymethyl)pyridin-2-yl)methyl)-1,2,3-oxadiazol-3-ium-5-yl)((3-(2-phenylacetamido)-5-(trifluoromethyl)phenyl)carbamoyl)amide], in that order: 100 to 1000 nM, 100 to 1000 nM, < 100 nM and 1000 to 20000 nM.
`CN1CCCC(C[n+]2cc([N-]C(=O)Nc3cc(NC(=O)Cc4ccccc4)cc(C(F)(F)F)c3)on2)C1` (centres unmarked) [Example 117, (3-((1-Methylpiperidin-3-yl)methyl)-1,2,3-oxadiazol-3-ium-5-yl)((3-(2-phenylacetamido)-5-(trifluoromethyl)phenyl)carbamoyl)amide]: the IC50 in test [1] is 1000 to 20000 nM; in test [2], 100 to 1000 nM; in test [3], < 100 nM; in test [4], 1000 to 20000 nM.

The term IC50 denotes the concentration that gives 50% inhibition. Read a low IC50 as higher potency.
